According to ChEMBL document CHEMBL4482313, “Method and compounds for inhibition of cell death” (2012):

Molecular target: T1, Serine protease HTRA2, mitochondrial (Homo sapiens, UniProt O43464)
T1 sequence (O43464 whole entry): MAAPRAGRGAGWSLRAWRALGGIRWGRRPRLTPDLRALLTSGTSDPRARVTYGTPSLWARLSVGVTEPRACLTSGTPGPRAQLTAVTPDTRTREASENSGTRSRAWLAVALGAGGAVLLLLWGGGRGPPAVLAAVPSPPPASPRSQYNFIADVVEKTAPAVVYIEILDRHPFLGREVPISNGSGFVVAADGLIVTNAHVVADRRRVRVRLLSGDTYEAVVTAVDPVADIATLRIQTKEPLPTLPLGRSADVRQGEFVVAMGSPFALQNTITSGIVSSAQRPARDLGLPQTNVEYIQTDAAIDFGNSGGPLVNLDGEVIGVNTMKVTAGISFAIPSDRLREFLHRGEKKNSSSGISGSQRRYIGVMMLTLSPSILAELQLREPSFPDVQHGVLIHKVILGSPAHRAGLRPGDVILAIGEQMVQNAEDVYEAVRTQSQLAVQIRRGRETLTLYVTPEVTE
Assay: Inhibition of His-tagged Omi/HtrA2 (134 to 458 residues) (unknown origin) expressed in TB1 Escherichia coli at 10 to 100 uM pre-incubated for 10 mins before un-labeled beta-casein substrate addition and measured after 30 mins by Coomassie blue staining based SDS-PAGE analysis

For `COc1ccc(-c2ccc(C=C3C(=O)N(c4ccccc4)C(=S)N(c4ccccc4)C3=O)o2)cc1Cl`, which IC50 is on record?
The IC50 was 45.9 µM.
